scFv variants of Ab-14 (heavy chain) against a SARS-CoV-2 spike peptide

Target peptide (SARS-CoV-2 spike, HR2 region): PDVDLGDISGINAS

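The starting antibody came from a phage panning campaign against this peptide. AAYL49 was designed without a model: most single CDR substitutions and a random sample of double and triple ones. The scFvs were displayed on barcoded MATa yeast, the peptide on MATalpha yeast. Binding brings cells together so that they mate, and sequencing counts the barcode pairs among the diploids. A regression on co-assayed BCL2-family reference pairs converts the normalised counts of each replicate to an apparent Kd. Mating was done three times.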

The variants keep the light chain, the linker and the frameworks of Ab-14 (scFv order VH, the linker GGGGSGGGGSGGGGS, VL).
VH: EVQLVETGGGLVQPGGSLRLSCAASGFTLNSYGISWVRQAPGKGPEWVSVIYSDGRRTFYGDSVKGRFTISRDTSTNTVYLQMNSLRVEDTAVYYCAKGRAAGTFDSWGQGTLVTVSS
VL: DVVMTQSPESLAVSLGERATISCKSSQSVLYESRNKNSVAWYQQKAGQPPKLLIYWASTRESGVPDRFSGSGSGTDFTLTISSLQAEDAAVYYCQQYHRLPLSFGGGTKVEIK

Changes read parent residue, position, new residue, counted from the first residue of the VH shown. The read-out is the apparent dissociation constant on a log10 scale (nM): the lower, the stronger. An entry "nd" has no value in the source: the pair was not observed among the diploids in that replicate. This suggests poor binding but is not conclusive.

V50D/F59D: nd, nd, nd (controls 2 of 9).
G33P/R57V/F105Q: nd, nd, nd (controls 6 of 9).
N30T/V50N/D106R: nd, nd, nd (controls 3 of 9).
G61A/G103F/T104D: 1.25, 1.39, 1.53 (controls 1 of 9).
Y32I/K65R/F105S: 3.43, 2.87, nd (controls 4 of 9).
D54C/R57N/A101H: nd, nd, nd (controls 0 of 9).
I51T/S63T/G99S: nd, nd, 4.75 (controls 2 of 9).
G55I/R56V/F105W: nd, nd, nd (controls 0 of 9).
S35N/D54N/G61L: nd, nd, nd (controls 1 of 9).
L29I/T58E/F59L: nd, nd, nd (controls 0 of 9).
V50A/Y60H/S107G: nd, 4.01, nd (controls 1 of 9).
I51E/D62E/V64F: nd, nd, nd (controls 0 of 9).
S53W/Y60H/S107V: nd, nd, nd (controls 0 of 9).
T58G/S63I/G103C: nd, nd, nd (controls 0 of 9).
Y52T/T58V/G103F: nd, 2.21, nd (controls 0 of 9).
T28E/I51T/T104K: 4.45, 4.24, nd (controls 3 of 9).
Y32N/I51P/S63V: nd, nd, 4.69 (controls 1 of 9).
Y60I/G61V/S63V: 5.37, nd, nd (controls 1 of 9).
I51K/S53Y/K65F: 4.15, nd, nd (controls 2 of 9).
F59C/D62T/F105H: nd, 3.65, nd (controls 3 of 9).
G26I/V64L/T104W: nd, 4.43, 3.65 (controls 2 of 9).
S63W/A101V/G103N: nd, 4.20, 6.34 (controls 3 of 9).
I34D/G55R/S107M: nd, nd, 4.26 (controls 2 of 9).
R57F/D62R/G103T: nd, nd, nd (controls 0 of 9).
I34N/V50T/G103V: nd, 3.40, nd (controls 3 of 9).
F27V/T58D/D62S: nd, nd, nd (controls 0 of 9).
N30E/S63Q/A102L: nd, nd, 3.61 (controls 0 of 9).
Y52C/R57T: nd, 3.55, nd (controls 1 of 9).
Y32S/Y52S/S53W: 5.13, nd, nd (controls 5 of 9).
G61V/S63A/A102T: 0.99, 0.95, 0.59 (controls 0 of 9).
F59P/F105H: 5.77, 4.02, 4.19 (controls 7 of 9).
Y52F/S53T: nd, nd, 3.62 (controls 4 of 9).
G26P/T28K/G33V: nd, nd, nd (controls 2 of 9).
V50C/D54M/A101P: 4.95, nd, nd (controls 1 of 9).
R56S/T58N/Y60A: nd, 2.57, nd (controls 0 of 9).
I51L/Y52I: nd, nd, nd (controls 0 of 9).
D62C/G99R/A102R: nd, 3.49, nd (controls 0 of 9).
G61K/R100K/G103W: nd, nd, 3.34 (controls 6 of 9).

Excerpt, the first 5 entries:

With V50D/F59D the result was nd, nd, nd (controls 2 of 9).
With G33P/R57V/F105Q the result was nd, nd, nd (controls 6 of 9).
With N30T/V50N/D106R the result was nd, nd, nd (controls 3 of 9).
With G61A/G103F/T104D the result was 1.25, 1.39, 1.53 (controls 1 of 9).
With Y32I/K65R/F105S the result was 3.43, 2.87, nd (controls 4 of 9).

Empty control strains, which show no peptide, gave a signal in 15% of pairings with library AAYL49; the median was 4.06 and 95% of these signals were weaker than 2.83. No background was subtracted. The control count says in how many pairings with the empty strains this scFv gave a signal.

Values reported by Engelhart et al. 2022, doi:10.1038/s41597-022-01779-4 (FLAb copy).